The target in experiment [1] is T1, histidine kinase HK853 (Thermotoga maritima, UniProt Q9WZV7).
T1 sequence (Q9WZV7 232-489): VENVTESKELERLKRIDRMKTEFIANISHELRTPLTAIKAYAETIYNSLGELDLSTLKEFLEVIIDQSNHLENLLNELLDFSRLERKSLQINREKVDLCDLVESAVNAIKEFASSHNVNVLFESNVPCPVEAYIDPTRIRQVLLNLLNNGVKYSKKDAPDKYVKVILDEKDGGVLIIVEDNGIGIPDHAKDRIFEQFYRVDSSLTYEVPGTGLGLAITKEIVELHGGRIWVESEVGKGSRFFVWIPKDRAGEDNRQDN
Conditions: non-native bases or nucleosides, Comparative Example 1.

The target in experiment [2] is T1, histidine kinase HK853. As to the kind of experiment: biochemical.

pIC50: −log10 of the molar value. Like-named read-outs stand apart in the source and are kept apart here.

Molecule `O=c1[nH]cnc2nc[nH]c12` [Hypoxanthine, reference compound] showed a pIC50 against histidine kinase HK853 [1] of 2.92. On histidine kinase HK853 [2], `OCC1OC(n2cnc3c(NCCc4ccccc4)ncnc32)C(O)C1O` (centres unmarked) [Compound C20] had a pIC50 of 2.92.

(Values after US11452714B2, “Antibacterial agents including histidine kinase inhibitors” (Regents of the University of Minnesota, priority 2017, dated 2022).)
